Tested on: Human platelets
Assay: mitochondrial toxicity assay, high-resolution respirometry of FCCP-uncoupled human platelets
Settings: for comparison of safety with respect to mitochondrial toxicity between two drugs: two titration experiments compared, human platelets (FIGS. 7-9)

Compound	comparison of safety with respect to mitochondrial toxicity between two drugs	mitochondrial toxicity (oxygen flux on titration of the drug) (Human platelets 200*10^6 cells/ml, buffer pH 7.1, FCCP 2 μM, increasing concentrations, then rotenone 2 μM and antimycin 1 μg/ml)
C[C@H]1c2cccc(O)c2C(=O)C2=C(O)[C@]3(O)C(=O)C(C(N)=O)=C(O)[C@@H](N(C)C)[C@@H]3[C@@H](O)[C@@H]21 [Doxycycline]	safer than minocycline	–
COCc1c(C(C)C)nc(C(C)C)c(/C=C/[C@@H](O)C[C@@H](O)CC(=O)O)c1-c1ccc(F)cc1 [Cerivastatin]	–	displays mitochondrial toxicity as shown by decreased oxygen fluxes with higher concentrations
CN(CCOc1ccc(CC2SC(=O)NC2=O)cc1)c1ccccn1 (stereo not drawn) [Rosiglitazone]	safer drug substance than troglitazone	–

Reference: patent US20150253306A1 (priority 2012, published 2015)
